Reference: PubChem BioAssay AID1013 (Columbia University Molecular Screening Center, 2008)
The list shows a part of the results, in another mix than the full data. Active and inactive are the calls of the source. How the calls were made is not given here.

Assay: blockers of VCAM1 upregulation by TNFa – imaging, TNFa stimulus, retest and dose response, confirmation (AID 1013)
Details: TNFa-stimulated cells, VCAM1 expression imaging; at 2 µM; stronger effect = higher value

Structure (SMILES): O=P(Nc1nccs1)(c1ccccc1)c1ccccc1
- inhibition: inactive: 11.2%
